A549 viability: A549 cytotoxicity, counter-screen for Nrf2 inhibitors | A549 ARE-Fluc cells, CellTiter-Fluor viability, 18-24 h | 0.16% of 390,000 active | Potency, µM (titrated, usually from 46 µM), without a hit: at the highest dose activity change, negative = cytotoxicity, most hits filed as inhibitors | AID 504648; note: potency is the fitted concentration of half-maximal effect; % is set by controls: 0 for no effect and ±100 for the full control effect
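A549 ARE-Fluc cells in 5% FBS OPTI-MEM, 5000 cells/well, rested 2 h then exposed to compounds in concentration-response for 18-24 h at 37 °C. Viability by CellTiter-Fluor fluorescence (Ex 405/Em 525) after 30 min; luciferase luminescence (BugLite, 15 min, RT) read afterwards.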
Nrf2 block: Nrf2 pathway inhibition; A549 ARE-Fluc reporter, luciferase luminescence, 18-24 h; Potency, µM (highest dose often 46 µM), without a hit: at the top dose activity change, negative = inhibition, hits mostly inhibitors; 2.1% of 360,000 active; AID 504444; note: potency is the fitted concentration of half-maximal effect; % is set by controls: 0 for no effect and ±100 for the full control effect; nearly all actives have a fitted effect of over 60% in size
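A549 ARE_Fluc cells (5000/well, 5% FBS OPTI-MEM) pre-incubated 2 h, then treated with compounds 18-24 h at 37C/5% CO2 in concentration-response. CellTiter-Fluor viability read first; BugLite luciferase luminescence after 15 min at room temperature gives Nrf2 activity.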
PI4K2A inh: PI4K2A (human) kinase inhibition; Q9BTU6; purified PI4K2A, ADP-Glo luminescence, 1 h; active compounds read low; activity change, negative = inhibition, % at 76.9 µM; 0.13% of 420,000 active; AID 1346378; in the data active = activity change below about -50%; inconclusive = mostly about -30% to -49%;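 note: -100% = wells without enzyme as full effect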
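PI4K2A activity was measured by ADP-Glo luminescence: enzyme (4 ug/mL stock) and phosphatidylinositol (1.2 mM stock) in Tris pH 7.5/MgCl2/EGTA/Triton X-100 buffer were reacted with ATP (300 microM stock) for one hour at ambient temperature.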
GALK inh: inhibitors of human galactokinase. Purified GALK, Kinase-Glo residual ATP luminescence. Potency, µM (series often up to 57.5 µM), for the others: at the top dose activity change, negative = inhibition, most hits filed as inhibitors. 0.007% of 270,000 active. AID 1868; note: potency is the fitted concentration of half-maximal effect; % is set by controls: 0 for no effect and ±100 for the full control effect
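Galactose (100 uM) and ATP (35 uM) were turned over by 5 nM GALK for 1 h at RT. Kinase-Glo Plus then converted the remaining ATP into a luminescent signal.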
miR-21 reporter: raises the signal of a miR-21 reporter; Potency, µM (doses to about 38.3 µM), inactives show top-dose reporter change, positive = more light; HeLa miR-21 FLuc reporter, luciferase, 48 h; AID 2288; 340,000 tested, under 10 active; active = well fitted rising curve with a large enough effect; inconclusive = small, poorly fitted or top-dose-only effect; inactive = no such curve, though single readings can be large or run the other way;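 further: % of control where 0% means no effect; miR-21 action dims this reporter so a rising signal means less miR-21 action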
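Luminescence from a firefly luciferase reporter carrying a miR-21 binding site downstream, stably expressed under a CMV promoter in HeLa cells that make miR-21 endogenously, reports miRNA modulation after 48 h compound exposure up to approximately 40uM final.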
Nrf2 activator: activators of Nrf2 (ARE) signaling; 0.31% of 410,000 active; Potency, µM (titrated, usually from 46.1 µM), inactives show at the top dose activation, most hits filed as activators; AID 624171; AREc32 ARE-luciferase reporter (MCF7-derived line), luminescence, 24 h; note: potency is the fitted concentration of half-maximal effect; % of control where 0% means no effect; nearly all actives have a fitted effect of over 65% in size
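Cells of the AREc32 ARE-luciferase line are plated in OPTI-MEM containing 5% FBS and left overnight at 37 deg C. Compounds are pinned in, incubation continues 24 hr, and firefly luciferase signal is then measured.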
An asterisk follows results filed as active; ? = inconclusive; / = no result; [ ] = remark or other dose. The list is not random: actives were taken first. Their share in the collection is about 2.2%. Unless noted, calls come from the whole dose curve; as a rule, active = well fitted curve in the direction sought with a large enough effect; inconclusive = small, poorly fitted or top-dose-only effect, or another doubt; inactive = no such curve, though single readings can be large; an effect the other way counts as inactive or inconclusive.

SMILES | A549 viability | Nrf2 block | PI4K2A inh | GALK inh | miR-21 reporter | Nrf2 activator
O=C(COc1ccc(Cl)cc1)Nc1ccc(N2CCN(C(=O)c3ccco3)CC2)cc1 | -1% | 23µM* | -3 | -4% | 24% | 0%
Cc1ccccc1OCC(=O)Nc1ccc(N2CCN(C(=O)c3ccco3)CC2)cc1 | -23% | 15µM* | -2 | 5% | 18% | 3%
COc1ccc(OCC(=O)Nc2ccc(N3CCN(C(=O)c4ccco4)CC3)cc2)cc1 | -4% | ? | -1 | -1% | -17% | 0%
C[C@H]1[C@@H](N(C)CC2CCCCC2)CC[C@@]23CCCN2C(=O)CCC[C@@H]13 | / | / | -1 | / | / | /
CC(C)(C)C(=O)Nc1ccc(-c2nc3ccccc3s2)cc1 | 1% | 2.6µM* | -10 | / | ? | -3%
N#Cc1nc(Nc2cccc3ccccc23)nc(NC2CCCC2)n1 | -23% | 18µM* | / | / | / | /
Cc1ccccc1Nc1nc(C#N)nc(NC2CCCC2)n1 | -18% | 9.2µM* | / | / | / | /
N#Cc1nc(Nc2ccccc2)nc(NC2CCCC2)n1 | -7% | -15% | / | / | / | /
COc1ccc(C(=O)O/N=C(/C)c2cccs2)cc1 | 10% | / | -92* | 10% | 1% | 18µM*
N/C(=N\OC(=O)c1ccco1)c1ccccc1 | -15% | ? | -4 | 4% | -62% | 18µM*
Cc1ccc(/C(N)=N/OC(=O)c2ccco2)cc1 | 0% | ? | -24 | 2% | -46% | 24%
N/C(=N\OC(=O)c1ccc(Br)cc1)c1ccccc1 | 3% | / | -4 | 4% | -42% | 8.9µM*
COc1ccc(C(=O)O/N=C(\N)c2ccccc2)cc1 | 0% | ? | -67* | 24% | -33% | -1%
N/C(=N\OC(=O)c1cccc(Br)c1)c1ccc(Br)cc1 | 0% | 26% | 3 | -2% | -9% | ?
CC1(C)CC(=O)C=C(Nc2ccccc2NC(=O)c2cccc(F)c2F)C1 | / | / | 4 | / | / | /
O=c1c2cc3cc(Cl)ccc3nc2ncn1N1CCCCC1 | / | / | -6 | / | / | /
CC(C)(C)OC(=O)N1CCC(c2ccc[nH]2)(c2c[nH]c3ccccc23)CC1 | / | / | 3 | / | / | /
O=C(Nc1ncnc2nc[nH]c12)c1ccccc1 | 5% | 16% | / | / | / | /
CCOC(=O)C1CCN(C(c2cccnc2)c2c(NC(=O)c3ccco3)sc(C)c2C)CC1 (stereo not drawn) | -14% | 15µM* | 3 | -1% | 23% | 6%
Cc1sc(NC(=O)c2ccco2)c(C(c2cccnc2)N2CCN(CCO)CC2)c1C (stereo not drawn) | 10% | 2% | 3 | -3% | 4% | 2%
Cc1sc(NC(=O)c2ccco2)c(C(c2cccnc2)N2CCN(c3ccc(F)cc3)CC2)c1C (stereo not drawn) | -12% | 15µM* | 0 | -2% | 25% | -1%
C#CC[N+](CC)(CC)CC#Cc1cccc(Cl)c1 | -17% | 10µM* | 2 | -1% | 2% | 0%
COc1ccc(S[C@]2(C(=O)NCc3ccccc3)CC(=O)N[C@@H]2c2ccc(OC)cc2)cc1 | / | / | -7 | / | / | /
O=C(Nc1ccc(F)cc1)c1ccc(-n2cncn2)c([N+](=O)[O-])c1 | -6% | 23µM* | -1 | -1% | 2% | 3%
Cc1ccc(Nc2nc(N)nc(CCl)n2)c(C)c1 | -19% | 1% | 5 | 0% | ? | 3%

Some of these compounds in order of their number in miR-21 reporter, low to high.
| Structure | PI4K2A inh | GALK inh | miR-21 reporter | Nrf2 activator |
| --- | --- | --- | --- | --- |
| N/C(=N\OC(=O)c1ccc(Br)cc1)c1ccccc1 | -4 | 4% | -42% | 8.9µM* |
| COc1ccc(C(=O)O/N=C(\N)c2ccccc2)cc1 | -67* | 24% | -33% | -1% |
| N/C(=N\OC(=O)c1cccc(Br)c1)c1ccc(Br)cc1 | 3 | -2% | -9% | ? |
| COc1ccc(C(=O)O/N=C(/C)c2cccs2)cc1 | -92* | 10% | 1% | 18µM* |
| O=C(Nc1ccc(F)cc1)c1ccc(-n2cncn2)c([N+](=O)[O-])c1 | -1 | -1% | 2% | 3% |
| O=C(COc1ccc(Cl)cc1)Nc1ccc(N2CCN(C(=O)c3ccco3)CC2)cc1 | -3 | -4% | 24% | 0% |
| Cc1sc(NC(=O)c2ccco2)c(C(c2cccnc2)N2CCN(c3ccc(F)cc3)CC2)c1C (stereo not drawn) | 0 | -2% | 25% | -1% |

The listing continues.
SMILES | A549 viability | Nrf2 block | PI4K2A inh | GALK inh | miR-21 reporter | Nrf2 activator
Cc1cccc(Nc2nc(N)nc(CCl)n2)c1C | ? | 10µM* | 1 | 0% | ? | 19%
COc1cccc(Nc2nc(N)nc(CCl)n2)c1 | -9% | -5% | 1 | -3% | 23% | 13µM*
Cc1cccc(Nc2nc(N)nc(CCl)n2)c1 | -13% | 5% | 2 | 1% | ? | 14µM*
COc1ccc(OC)c(Nc2nc(N)nc(CCl)n2)c1 | -8% | -43% | 3 | 1% | ? | 25%
CC(C)(C)c1ccc(-c2nnc(SCC(=O)Nc3ccc(Oc4ccccc4)cc3)n2Cc2ccco2)cc1 | / | / | -7 | / | / | /
Cc1cc2c(s1)c1cnn(Cc3ccc(F)c(C)c3)c(=O)c1n2C | 0% | 8% | / | / | / | /
O=C(OC12CCCN(C1)/C(=C/c1ccncc1)C2)c1ccco1 (stereo not drawn) | / | / | -14 | / | / | /
COC(=O)/C=C1/S/C(=N/N=C/c2ccco2)NC1=O | -20% | -5% | 1 | -2% | -5% | 10µM*
Cn1nnnc1Sc1ncnc2scc(-c3ccc(C(=O)OC(C)(C)C)cc3)c12 | -2% | 10% | / | / | / | /
CCCCc1ccc(C(=O)Nc2ccc3nc(N(CC)CC)cc(C)c3c2)cc1 | -14% | 5%[9.27 µM] | -5 | / | ? | 0%
CCN(CC)c1cc(C)c2cc(NC(=O)c3ccc(Br)o3)ccc2n1 | ? | 12µM* | -1 | / | -6% | 0%
CC1CCN(C(=O)CCC(=O)N2CC(C)Oc3ccccc32)CC1 (stereo not drawn) | -11% | -20% | -4 | / | 0% | -1%
Cc1cccc(N2CCN(C(=O)CCC(=O)N3CC(C)Oc4ccccc43)CC2)c1C (stereo not drawn) | 0% | 18µM* | -1 | / | 29% | 2%
Cc1cccc(N2CCN(C(=O)c3ccccc3SCC(=O)N3CCCC3)CC2)c1C | ? | 23µM* | -1 | / | / | 4%
Cc1cccc(N2CCN(C(=O)CSCc3ccc(F)cc3)CC2)c1C | -1% | / | -9 | / | -13% | 0%
COc1ccc(-c2ccc3ncnc(NCc4ccc(C)o4)c3c2)cc1OC | -15% | -23% | / | / | / | /
O=C(OC12CCCN(C1)/C(=C/c1ccncc1)C2)c1ccc(Cl)cc1 (stereo not drawn) | / | / | 2 | / | / | /
Cc1ccc(-c2ccc(S(=O)(=O)Nc3cccnc3)cc2)cc1 | 0% | 12µM* | -13 | -4% | 8% | 3%
O=C1c2ccccc2C(=O)c2cc(S(=O)(=O)Nc3cccc4cccnc34)ccc21 | -19% | 5.2µM* | / | / | / | /
Cc1ccc2nsnc2c1S(=O)(=O)Nc1cccc2cccnc12 | ? | 8.2µM* | / | / | / | /
Cc1ccc(S(=O)(=O)Nc2cccnc2)cc1C | -4% | 0% | 1 | -3% | -3% | 0%

Record cards, from the list above:
`Cc1cccc(Nc2nc(N)nc(CCl)n2)c1C` across the screens: A549 viability: ?; Nrf2 block: 10µM*; PI4K2A inh: 1; GALK inh: 0%; miR-21 reporter: ?; Nrf2 activator: 19%
`O=C1c2ccccc2C(=O)c2cc(S(=O)(=O)Nc3cccc4cccnc34)ccc21` across the screens: A549 viability: -19%; Nrf2 block: 5.2µM*; PI4K2A inh: /; GALK inh: /; miR-21 reporter: /; Nrf2 activator: /

Source: PubChem BioAssay (National Center for Advancing Translational Sciences (NCATS))
